Reference: PubChem BioAssay AID2097 (Broad Institute, 2009)
Only a part is listed here, and it is no random draw. Activity calls are given as the source filed them.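 Rule for the calls: active = more than half of replicate wells score below -50%, meaning over 50% inhibition versus plate controls; inconclusive = some replicates but at most half score below -50%; inactive = no replicate scores below -50%.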

By UniProt entry, the sequences of proteins in these tests, tags left out. Where a name states a change or a piece, a line headed by the entry shows the natural chain unless it says otherwise.
UniProt P49841: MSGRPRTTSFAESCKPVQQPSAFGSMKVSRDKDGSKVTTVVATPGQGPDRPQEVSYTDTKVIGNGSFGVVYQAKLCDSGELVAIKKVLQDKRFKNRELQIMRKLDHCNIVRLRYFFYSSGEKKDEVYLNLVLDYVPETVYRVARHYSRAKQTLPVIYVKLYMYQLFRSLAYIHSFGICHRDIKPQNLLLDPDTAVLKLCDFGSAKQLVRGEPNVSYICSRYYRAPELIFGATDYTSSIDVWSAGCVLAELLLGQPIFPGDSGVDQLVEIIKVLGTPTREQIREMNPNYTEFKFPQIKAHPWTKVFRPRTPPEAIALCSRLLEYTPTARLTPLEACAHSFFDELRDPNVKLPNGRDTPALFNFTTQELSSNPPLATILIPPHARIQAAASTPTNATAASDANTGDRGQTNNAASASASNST

molecular target: Glycogen synthase kinase-3 beta (Homo sapiens) (UniProt P49841); assay: human GSK3beta kinase inhibitors, primary screen, biochemical, cell-free homogeneous, HTS (AID 2097); settings: GST-GSK3beta kinase, ADP-Glo luminescence, 60 min; at 10 µM; active compounds read low;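 note: 0% = median DMSO wells and -100% = median GW8510 positive control wells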

Structure (SMILES)	activity score (negative = inhibition)
O=[N+]([O-])c1cccc(NC2=NCC(CBr)S2)c1 (configuration not stated)	inactive: 0.781%
O=C(O)CNc1ccc([As](=O)(O)O)cc1	inactive: 2.49%
CC(C)(C)C(=O)NC(Sc1ccncn1)C(Cl)(Cl)Cl (configuration not stated)	inactive: -3.34%
O=[N+]([O-])c1ncn(CCn2ncnc2[N+](=O)[O-])n1	inactive: -1.74%
O=C(Nc1cc([As](=O)(O)O)ccc1O)c1ccccc1	inactive: 3.51%
CN(C)C(=O)OCCc1n(C)cc[n+]1C	inactive: -28.5%
CC(C)=N/N=C(\N)N[N+](=O)[O-]	inactive: 0.651%
CC1CCN(C(=O)Oc2c(Cl)cc(Cl)c3cccnc23)CC1	inactive: 1.02%
C[N+]1=C2C=CC=CC=C2SC12C([N+](=O)[O-])=CC([N+](=O)[O-])=C[C-]2[N+](=O)[O-] (configuration not stated)	inactive: -2.37%
Nc1ccc([As](=O)(O)c2ccc(N)cc2)cc1	inactive: -0.311%
CCN(/C(=N/P(=O)(N1CCOCC1)N1CCOCC1)N1CCOCC1)c1ccc(OC)cc1	inactive: -6.82%
O=[N+]([O-])c1cccc2n[nH]nc12	inactive: 1.61%
CC(=O)N1C2C3N(C(C)=O)C1C1N(C(C)=O)C(C(N1C(C)=O)N3C(C)=O)N2C(C)=O	inactive: 2.1%
CCc1nc2c(n1)c1c(non1O)c1c2no[n+]1[O-]	inactive: 2.94%
O=[N+]([O-])c1cc([N+](=O)[O-])c(CCNc2ccccc2)c([N+](=O)[O-])c1	inactive: 4.83%
Cc1ccc(NP(=O)(Oc2ccccc2)Oc2ccccc2)nc1	inactive: 1.29%
COc1ccc(C2=NCC(CBr)S2)cc1 (configuration not stated)	inactive: 1.76%
CC(C)CC(=O)NC(Sc1ccc(Cl)cc1)C(Cl)(Cl)Cl (configuration not stated)	inactive: -2.71%
Nc1cc(N)c2nonc2c1[N+](=O)[O-]	inactive: 1.23%
Cc1c2non([O-])c-2c(C)[n+](=O)[n+]1[O-]	inactive: 2.76%
O=C(NC(Sc1ccncn1)C(Cl)(Cl)Cl)c1ccccc1 (configuration not stated)	inactive: 1.4%
Oc1ccccc1CNc1ccccn1	inactive: -0.723%
Cc1ccc(OP(=O)(Nc2nccs2)Oc2ccc(C)cc2)cc1	inactive: 3.88%
COc1ccccc1OP(=O)(Nc1ccc(C)cn1)Oc1ccccc1OC	inactive: 2.13%
Clc1ccc(Cl)c(NC2=NCC(CBr)S2)c1 (configuration not stated)	inactive: -1%
CN1CCCC(OC(=O)C(c2ccccc2)c2ccccc2)C1 (configuration not stated)	inactive: 1.48%

Structure (SMILES)	activity score (negative = inhibition)
NC(=O)c1cc([N+](=O)[O-])cc([N+](=O)[O-])c1N	inactive: -5.75%
Cc1ccc(N/C(=N/P(=O)(N2CCOCC2)N2CCOCC2)N2CCOCC2)cc1	inactive: 4.14%
CCN(N=Nc1nonc1N)c1nonc1N	inactive: -18.4%
Nc1cccc2ccc([As](=O)(O)O)cc12	inactive: -0.23%
O=[N+]([O-])c1cc([N+](=O)[O-])c(CCN2CCOCC2)c([N+](=O)[O-])c1	inactive: 3.27%
Cc1ccc(NP(=O)(Oc2ccccc2F)Oc2ccccc2F)nc1	inactive: 0.461%
CN(C(=O)Cc1ccc(Cl)c(Cl)c1)[C@H]1CCCC[C@@H]1N1CCCC1	inactive: -2.24%
CCOP(=O)(Nc1ccccc1)OCC	inactive: -0.242%
Cc1cc(SC(NC(=O)c2ccc(F)cc2)C(Cl)(Cl)Cl)ncn1 (configuration not stated)	inactive: 7.01%
O=C(O)c1ccccc1[As](=O)(O)O	inactive: -0.46%
CC(=O)Nc1ccc([As](=O)(O)O)cc1	inactive: 0.924%
O=P(Nc1nc2ccc(Cl)cc2s1)(c1ccccc1)c1ccccc1	inactive: 0.631%
CN(C)C(=O)Oc1noc2ccccc12	inactive: -0.418%
Cc1ccccc1OP(=O)(Nc1ccccn1)Oc1ccccc1C	inactive: 0.801%
CC(=O)NC(SC(=S)N(CC(C)C)CC(C)C)C(Cl)(Cl)Cl (configuration not stated)	inactive: 3.5%
Cc1ccc(OP(=O)(Nc2ccccn2)Oc2ccc(C)cc2)cc1	inactive: -0.99%
COC(=O)c1cc2c(s1)N=C(c1ccccc1)N(C)P2(=O)N1CCOCC1 (configuration not stated)	inactive: 0.565%
CCC(=O)N1C2C3N(C(=O)CC)C1C1N(C(=O)CC)C(C(N1C(=O)CC)N3C(=O)CC)N2C(=O)CC	inactive: 4.34%
O=C(OC1CN2CCC1CC2)c1ccccc1 (configuration not stated)	inactive: 1.55%
CCNC(=S)/N=C(\N)N[N+](=O)[O-]	inactive: -0.356%
O=C(NC1CCS(=O)(=O)C1)NP(=S)(Oc1ccccc1)Oc1ccccc1 (configuration not stated)	inactive: -0.959%
Cc1ccc(NP(=O)(Oc2cccc(C)c2)Oc2cccc(C)c2)nc1	inactive: 3.84%
CCOC(=O)NC(Sc1ccccc1)C(Cl)(Cl)Cl (configuration not stated)	inactive: -1.63%
c1ccc(-c2nn[nH]n2)c(-c2nn[nH]n2)c1	inactive: 2.14%
CC(=O)Nc1ccc(Oc2c([N+](=O)[O-])cc([N+](=O)[O-])cc2[N+](=O)[O-])cc1	inactive: 3.91%
CC(=O)Nc1ccc([As](=O)(O)O)c(O)c1	inactive: 0.0465%

Structure (SMILES)	activity score (negative = inhibition)
CC(=O)c1ccc(N2CC2c2ccncc2)cc1 (configuration not stated)	inactive: 6.35%
C[C@@H]1C=CCP(=O)(Oc2ccccc2)O1 (some centres not stated)	inactive: -0.857%
C[C@H]1OP(=O)(Oc2ccccc2)C[C@@H]2O[C@@H]21 (some centres not stated)	inactive: 0.93%
CC(C)(C)C(=O)NC(Sc1ccccc1)C(Cl)(Cl)Cl (configuration not stated)	inactive: 3.39%
CCOc1ccc(C2=NCC(CBr)S2)cc1 (configuration not stated)	inactive: 0.793%
O=P1(Nc2nc3ccc(Cl)cc3s2)COc2ccccc2O1 (configuration not stated)	inactive: 5.73%
c1nnnn1CCn1cnnn1	inactive: 1.23%
CC(C)C(=O)NC(Sc1ccccc1)C(Cl)(Cl)Cl (configuration not stated)	inactive: -0.0191%
O=P(Nc1nccs1)(c1ccccc1)c1ccccc1	inactive: -2.31%
Nc1ccc([As](=O)(O)c2ccc([N+](=O)[O-])cc2)cc1	inactive: -0.68%
C(Cc1nn[nH]n1)Cc1nn[nH]n1	inactive: 1.91%
O=C(OC1CN2CCC1CC2)c1cccc(Cl)c1 (configuration not stated)	inactive: -1.58%
O=[N+]([O-])c1ccc(O)c(/C=N/Nc2ccc([N+](=O)[O-])cc2[N+](=O)[O-])c1	inactive: 3.19%
CC(=O)NC(SC(=S)N(C)C)C(Cl)(Cl)Cl (configuration not stated)	inactive: 2.33%
O=[N+]([O-])c1ncn(CCn2cnc([N+](=O)[O-])n2)n1	inactive: 0.048%
O=[As](O)(c1ccccc1)c1ccc(O)cc1	inactive: -0.888%
C[C@H]1OP(=O)(Oc2ccccc2)[C@H](O)[C@H](O)[C@H]1N=[N+]=[N-] (some centres not stated)	inactive: -1.14%
O=P(Nc1nc2ccccc2s1)(c1ccccc1)c1ccccc1	inactive: 0.271%
O=P(Nc1ccccn1)(c1ccc(Br)cc1)c1ccc(Br)cc1	inactive: -7.2%
CN(C)C1(CNC(=O)c2ccc(Cl)c(S(N)(=O)=O)c2)CCCCC1	inactive: -2.24%
O=P1(Nc2ccc(Br)cn2)COc2ccccc2OC1	inactive: -2.32%
Cc1ccc(OCC(=O)OC2CN3CCC2CC3)cc1 (configuration not stated)	inactive: -0.786%
O=[As](O)(c1cccs1)c1cccs1	inactive: -4.3%
Nc1cccc([As](=O)(O)c2ccccc2)c1	inactive: -0.644%
O=P1(Nc2ncccn2)COc2ccccc2OC1	inactive: 5.31%
O=C(/C=C/c1ccccc1)OC1CN2CCC1CC2 (configuration not stated)	inactive: 1.36%

Structure (SMILES)	activity score (negative = inhibition)
CN(C)C1(CNC(=O)c2ccc(S(C)(=O)=O)cc2)CCCCC1	inactive: -3.27%
CC1CCC(C(C)C)C(OP(=O)(Nc2ccccn2)c2ccccc2)C1 (configuration not stated)	inactive: -0.802%
Cc1ccc(C(=O)OC2CN3CCC2CC3)cc1 (configuration not stated)	inactive: 2.06%
Cc1nn(-c2ccccc2)c2c1P(=O)(N1CCOCC1)N(C)C(c1ccccc1)=N2 (configuration not stated)	inactive: 0.202%
CC1(CBr)Cn2c(nc3ccccc3c2=O)S1 (configuration not stated)	inactive: 3.04%
O=[As](O)(c1ccccc1Br)c1ccccc1Br	inactive: 0.184%
CC(C)/C=N\N=C(\N)N[N+](=O)[O-]	inactive: 2.73%
CN(C(=O)Cc1ccc(Cl)c(Cl)c1)[C@@H]1CCCC[C@H]1N1CCCC1	inactive: 0.369%
COc1ccccc1CNC(=O)COC(=O)C(O)(c1ccccc1)c1ccccc1	inactive: 4.05%
CC(C)(C)C(=O)NC(Sc1ncccn1)C(Cl)(Cl)Cl (configuration not stated)	inactive: 0.693%
Clc1n[nH]nc1-c1nn[nH][15n]1	inactive: 0.622%
CN(CCCl)Cc1cc(Cl)c(NC2=NCCN2)c(Cl)c1	inactive: -0.154%
CCOP(=O)(Nc1ccc(C)cn1)OCC	inactive: -3.04%
CCOP(=O)(NC(=NC(C)c1ccccc1)NC(C)c1ccccc1)OCC (configuration not stated)	inactive: 3.48%
O=P1(Nc2ccccn2)COc2ccccc2OC1	inactive: 1.05%
CCC1=CC2Cc3nc4ccc(Cl)cc4c(N)c3C(C1)C2 (configuration not stated)	inactive: -1.6%
CCOP(=O)(Nc1cccc2ccccc12)OCC	inactive: -0.815%
COc1cc(C2NCCC3(OCCO3)C2(C)C)cc(OC)c1OC (configuration not stated)	inactive: 3.72%
CCCOP(=S)(Nc1nc(N)cc(=O)[nH]1)OCCC	inactive: 0.225%
Cc1ccc(NCCc2c([N+](=O)[O-])cc([N+](=O)[O-])cc2[N+](=O)[O-])cc1	inactive: 1.65%
Nc1cccc2c([As](=O)(O)O)cccc12	inactive: -1.08%
O=[As](O)(c1cccc(O)c1)c1cccc(O)c1	inactive: -1.63%
Cc1cccc(OCC(=O)OC2CN3CCC2CC3)c1 (configuration not stated)	inactive: -2.15%
CS(=O)(=O)c1ccc(Cl)c(NC(=O)COC(=O)C(O)(c2ccccc2)c2ccccc2)c1	inactive: -1.76%
